Reference: patent US20250228861A1, “Cancer Treatments Using MTA-Cooperative PRMT5 Inhibitors” (AMGEN INC., priority 2022, published 2025)

Legend:
[1] = test system: DOHH-2 endogenous MTAP-null xenografts; conditions: mouse, in vivo, po, 100 mg/kg
Description: FIG. 10. […] Female SCID mice were implanted with DOHH-2 or BxPC-3 tumors. […] Data represent group means±SEM, n=10. Terminal DOHH-2 or BxPC-3 tumors were collected for SDMA ELISA analysis. Data represent mean±SD, n=5 for each group. STATS: P values were determined by Linear Mixed-Effects Model with a Dunnett's comparison to control; **p<0.01, ****p<0.0001.
FIG. 11. […] (A-D.) Female SCID mice were implanted with DOHH-2 tumors. […] Mice were dosed orally (p.o.) once a day for ten days. Data represent group means±SEM, n=10. A.) Terminal DOHH-2 tumor volumes. […] C.) Disaggregated tumors were stained for γH2AX, MFI (mean florescent intensity). D.) Cardiac bleeds were performed and analyzed on ADVIA.

[2] = test system: HCT116 MTAP-null tumor xenografts; conditions: mouse, in vivo, po
Description: FIG. 2: ELISA analysis of HCT116 MTAP WT and HCT116 MTAP-null contralateral tumor cells. […] Percentage of inhibition reported relative to matched vehicle. Data represent mean±SD, n=3 for each group.
Female Athymic Nude mice were implanted with HCT116 MTAP-null or MTAP WT tumors. […] Data represents group means±SEM, n=10. […] STATS: P values were determined by Linear Mixed-Effects Model with a Dunnett's comparison to control.

Cc1cc2cc(C(=O)N(Cc3ccc(C(F)(F)F)cn3)[C@@H](C)c3ncccn3)ccc2nc1N [Compound B]
circulating blood cells (ADVIA) [1]: no effect on circulating blood cells
body weight [2]: No effects on body weight observed
